Measurements published in US9045445B2, “Glycine transporter-1 inhibitors, methods of making them, and uses thereof” (Albany Molecular Research, Inc., priority 2010, dated 2015).

Amino acid sequences for entries named in this document (tags omitted). A change or cut given only in a name is not applied to a line headed by its entry.
UniProt Q9Y345: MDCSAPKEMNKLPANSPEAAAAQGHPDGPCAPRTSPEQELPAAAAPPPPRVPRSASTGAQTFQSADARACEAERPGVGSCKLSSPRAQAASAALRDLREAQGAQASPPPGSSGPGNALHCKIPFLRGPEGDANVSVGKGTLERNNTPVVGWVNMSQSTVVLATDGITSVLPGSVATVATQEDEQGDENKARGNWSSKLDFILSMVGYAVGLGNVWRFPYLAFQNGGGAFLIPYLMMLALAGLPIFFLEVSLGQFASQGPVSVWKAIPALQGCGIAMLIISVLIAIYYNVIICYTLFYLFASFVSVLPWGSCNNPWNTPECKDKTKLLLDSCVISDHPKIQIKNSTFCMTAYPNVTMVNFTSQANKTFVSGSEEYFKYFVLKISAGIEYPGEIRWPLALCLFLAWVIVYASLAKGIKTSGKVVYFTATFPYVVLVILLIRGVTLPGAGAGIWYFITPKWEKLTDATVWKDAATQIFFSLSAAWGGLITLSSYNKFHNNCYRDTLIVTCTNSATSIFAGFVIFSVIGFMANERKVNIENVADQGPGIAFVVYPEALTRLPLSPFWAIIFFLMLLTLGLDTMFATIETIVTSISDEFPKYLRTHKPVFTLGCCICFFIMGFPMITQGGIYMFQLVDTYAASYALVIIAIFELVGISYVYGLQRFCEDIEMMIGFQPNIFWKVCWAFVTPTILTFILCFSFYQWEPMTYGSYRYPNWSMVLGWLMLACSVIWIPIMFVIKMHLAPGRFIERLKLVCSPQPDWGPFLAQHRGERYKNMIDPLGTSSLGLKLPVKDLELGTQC
UniProt P48067: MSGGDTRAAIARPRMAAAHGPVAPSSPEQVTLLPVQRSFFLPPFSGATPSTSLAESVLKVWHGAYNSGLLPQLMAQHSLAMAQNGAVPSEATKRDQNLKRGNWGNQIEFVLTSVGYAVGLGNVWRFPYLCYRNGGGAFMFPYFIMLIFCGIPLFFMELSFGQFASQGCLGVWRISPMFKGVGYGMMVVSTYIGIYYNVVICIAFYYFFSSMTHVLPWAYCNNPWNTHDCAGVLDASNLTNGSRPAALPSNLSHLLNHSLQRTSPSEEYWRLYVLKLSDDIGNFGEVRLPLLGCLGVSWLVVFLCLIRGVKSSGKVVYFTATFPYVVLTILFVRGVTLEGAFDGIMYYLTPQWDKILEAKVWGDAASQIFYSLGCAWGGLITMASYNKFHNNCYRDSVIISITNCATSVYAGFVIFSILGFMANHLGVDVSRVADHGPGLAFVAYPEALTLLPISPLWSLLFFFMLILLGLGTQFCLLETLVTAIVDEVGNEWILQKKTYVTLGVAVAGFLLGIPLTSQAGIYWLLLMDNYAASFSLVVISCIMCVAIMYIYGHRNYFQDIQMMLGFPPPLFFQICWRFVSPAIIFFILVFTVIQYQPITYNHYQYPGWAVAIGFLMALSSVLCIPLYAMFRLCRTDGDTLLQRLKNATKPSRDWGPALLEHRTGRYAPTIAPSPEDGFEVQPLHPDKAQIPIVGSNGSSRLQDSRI

What was measured:
[1] = biological target: glycine transporter-2 (GlyT-2) (Homo sapiens, UniProt Q9Y345); assay: [14C]glycine uptake assay in HEK-GlyT-2 transfected cells; assay type: cell-based; conditions: read-out: GlyT-2 IC50, HEK-GlyT-2 cells
[2] = biological target: glycine transporter-1 (GlyT-1) (Homo sapiens, UniProt P48067); assay: [14C]glycine uptake assay in JAR cells endogenously expressing GlyT-1 (scintillation proximity); assay type: cell-based; conditions: read-out: GlyT-1 IC50, [14C]glycine 5 μM, 3 hour incubation
Protocol: The inhibitory activity of compounds of the invention against the glycine transporter-1 (GlyT-1) can be determined by the following scintillation proximity assay. The potency of each compound was assessed in inhibiting the uptake of radiolabeled glycine ([^14C]glycine) using the human choriocarcinoma cell line, JAR cells (ATCC#HTB-144), which endogenously express GlyT-1. In brief, 50,000 JARS cells were plated per well of tissue culture treated 96-well Cytostar-T plate (PerkinElmer) in RPMI media supplemented with 10% heat inactivated FBS and allowed to attach overnight at 37° C. and 5% CO2. Compounds were serially diluted 3-fold in DMSO generating a nine (9) data point response curve for each compound. Two replicates were performed per determination. The compounds were then diluted into Uptake Buffer (10 mM Hepes, 120 mM NaCl, 2 mM KCl, 1 mM CaCl2 and 1 mM MgCl2, 5 mM Alanine, pH 7.4) with a final DMSO concentration of 0.75% (v/v). […] Following a 3 hour incubation period at 37° C. and 5% CO2, the plates were sealed and placed at room temperature in the dark for 15 minutes prior to quantification of incorporated radioactivity using a MicroBeta Trilux scintillation plate reader (PerkinElmer). […]

Q: Which results are given for `CCCS(=O)(=O)N1CCN(C2(CNC(=O)c3ccccc3F)CCCCC2)CC1`?
A: IC50 [1]: 50 µM; IC50 [2]: 0.157 µM

Q: Which IC50 [1] does the source give for `CCS(=O)(=O)N1CCN(C2(CNC(=O)c3c(N)cccc3Cl)CCCCC2)CC1` here?
A: 41.3 µM

Q: And the IC50 [2]?
A: 0.073 µM
